Source: PubChem BioAssay
SIRT5 block: sirtuin-5 (human) deacylase inhibition; Q9NXA8; Purified SirT5, succinyl-peptide AMC, trypsin-coupled fluorescence; inhibition, % at 15 µM; actives 1.1% (n = 330,000); in the data active = inhibition above about 15%
PDI turbidity: blocks human protein disulfide isomerase activity; actives 0.052% (n = 350,000); inhibition, % at 10 µM; P07237; PDI insulin aggregation turbidity, A650, 90 min;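 active = mean inhibition across replicates of 30% or more, whatever share of single replicates reach that level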
S100A4 inh HTS: S100A4-myosin IIA interaction inhibition | S100A4/TAMRA-MyoIIA peptide fluorescence polarization | inhibition, % at 10.7 µM | actives 0.14% (n = 360,000);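 active = mean inhibition of at least 70% across replicates, with every replicate also reaching that level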
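incubation = readout 5 min after mixing, signal stable up to 60 min | system = S100A4 monomer protein | buffer or medium = HEPES pH 7.2 with CaCl2, KCl, NaCl, DTT, Triton | benchmarks = neutral control DMSO, positive control TFP | also added = fluorescent myosin IIA peptide, 5 nM | compound dosing = one concentration per compound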
Yeast UUG start: modulators of yeast start codon fidelity, primary screen, whole organism, S. cerevisiae, single point, plate reader; S. cerevisiae UUG-firefly luciferase reporter, luminescence/redox ratio; activity score, % at 18.7 µM; actives 0.13% (n = 350,000);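 active means replicate mean at a twofold rise or more, about +100% in these data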;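 further: firefly luciferase made from a UUG start codon reports start codon fidelity; reporter light over untreated wells divided by growth signal over untreated wells; some hits fall short of that in this replicate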
FGF22 binding: shifts melting point of recombinant human FGF22; Q9HCT0; recombinant FGF22 thermal shift, SYPRO orange fluorescence; percent of sucrose octasulfate shift, DMSO zero; activity (Tm shift, normalised), % at 9.99 µM; actives 1.5% (n = 340,000);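 active = mean Tm shift, scaled 0 neutral to 100 positive control, at about 1.3% or above, every replicate too, limit read from the data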
ERp5 inh: inhibitors of human ERp5; inhibition, % at 9.99 µM; actives 0.05% (n = 350,000); Q15084; ERp5 insulin aggregation, absorbance 650 nm, 90 min;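 active = mean replicate inhibition above about 25%, with every replicate also reaching it, limit read from the data, passing the limit was not always enough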
Active calls of the source: *; / = no result. In the library only some 2.2% were active in any assay of this set; here they are far more common.

No.	smiles	S100A4 inh HTS	SIRT5 block	PDI turbidity	FGF22 binding	Yeast UUG start	ERp5 inh
1	CC(C)N1CCN(Cc2cc(F)ccc2-n2cccn2)CC1CCO (stereo unspecified)	-4	20*	-3	0	/	5
2	CC=Cc1ccc2n(c1=O)C[C@H]1[C@H](CO)[C@@H](C(=O)NCc3ccccc3)[C@@H]2N1Cc1ccccc1OC (mixture of isomers)	1	-1	/	0	/	0
3	Oc1ccc(N2CCN(c3nc(-c4cccs4)nc4ccccc34)CC2)cc1	-5	-1	2	0	/	7
4	c1ccc(N2CCN(c3nc(-c4cccs4)nc4ccccc34)CC2)cc1	2	-3	2	43*	/	7
5	C=CCOc1cccc(C(=O)/C=C2/C(=O)Nc3ccccc32)c1	-10	-1	-4	0	-7	3
6	CC(=O)/C=C1/C(=O)Nc2ccccc21	-16	-4	-1	44*	/	-4
7	COc1ccccc1NC(=O)/C(C#N)=C/c1c(C)nn(-c2ccc(F)cc2)c1Cl	-2	1	3	43*	/	-1
8	CCN1C(=O)NC(c2ccccc2)C1=O (stereo unspecified)	0	-4	-5	0	7	5
9	CCOP(=O)(OCC)C1NC(=O)N(c2ccccc2)C1=O (stereo unspecified)	-1	30*	-5	0	-14	1
10	COc1ccc(OC)c(S(=O)(=O)Oc2ccc(N)c3ccccc23)c1	-2	15*	5	0	-8	0
11	O=C(C1CCCC1)N1CC2(C1)[C@H](c1ccccc1)[C@@H](CO)N2C(=O)c1cccnc1	4	1	/	/	/	1
12	COC(=O)C[C@H]1CC[C@@H]2[C@@H](COc3ccc(NC(=O)c4ccccc4OC)cc3C(=O)N2C)O1	/	/	/	1	15	/
13	COC(=O)c1ccc(N=Cc2c(C(F)(F)F)[nH]n(C)c2=O)cc1	-7	-4	0	1	9	3
14	CN(C)S(=O)(=O)c1ccc(N=Cc2c(C(F)(F)F)[nH]n(C)c2=O)cc1	-5	2	-8	44*	-13	-3
15	O=C(Cn1ccc(=O)[nH]c1=O)Nc1ccc(O)c([N+](=O)[O-])c1	-1	/	-2	43*	-8	0

Some of these compounds in order of molecular weight, largest number first:
No.	smiles	S100A4 inh HTS	SIRT5 block	PDI turbidity	FGF22 binding	Yeast UUG start	ERp5 inh
3	Oc1ccc(N2CCN(c3nc(-c4cccs4)nc4ccccc34)CC2)cc1	-5	-1	2	0	/	7
10	COc1ccc(OC)c(S(=O)(=O)Oc2ccc(N)c3ccccc23)c1	-2	15*	5	0	-8	0
1	CC(C)N1CCN(Cc2cc(F)ccc2-n2cccn2)CC1CCO (stereo unspecified)	-4	20*	-3	0	/	5

Carrying on:
No.	smiles	S100A4 inh HTS	SIRT5 block	PDI turbidity	FGF22 binding	Yeast UUG start	ERp5 inh
16	CCc1nc2ccc(C(=O)N(CC)CCN(C)C)cn2c1N(CC)C(=O)NCCc1ccccc1	1	29*	-2	0	7	0
17	O=C(C[C@H]1CC[C@@H]2[C@H](COC[C@@H](O)CN2C(=O)Nc2ccc(Cl)c(Cl)c2)O1)NCc1ccc(Cl)cc1	2	0	/	-1	/	2
18	CC1CCN(C(=O)COC(=O)c2cc3ccccc3oc2=O)CC1	-3	/	2	44*	-12	7
19	O=C(NC1CCCCC1)N[C@H]1CC[C@@H](CCNS(=O)(=O)c2ccccc2)O[C@H]1CO	0	-1	/	0	7	4
20	COc1ccc(S(=O)(=O)Nc2ccc3c(c2)C(=O)N([C@@H](C)CO)C[C@H](C)[C@H](CN(C)C(=O)NC2CCCCC2)OCCCC[C@@H](C)O3)cc1	14	3	/	-1	8	2
21	C[C@H]1CN([C@@H](C)CO)S(=O)(=O)c2ccc(-c3cccc(C(=O)N(C)C)c3)cc2O[C@H]1CN(C)Cc1ccc2c(c1)OCO2	6	-2	/	0	-5	-4
22	COc1ccccc1-c1ccc2c(c1)O[C@@H](CN(C)CC1CCOCC1)[C@H](C)CN([C@H](C)CO)S2(=O)=O	-38	16*	/	0	3	0
23	COc1ccccc1-c1ccc2c(c1)O[C@H](CN(C)CC1CCOCC1)[C@H](C)CN([C@@H](C)CO)S2(=O)=O	-8	0	/	0	-11	2
24	C[C@H](CO)N1C[C@H](C)[C@@H](CN(C)Cc2ccc3c(c2)OCO3)Oc2cc(-c3cccc(C(=O)N(C)C)c3)ccc2S1(=O)=O	6	18*	/	0	-2	-9
25	C[C@H]1CN([C@@H](C)CO)S(=O)(=O)c2ccc(-c3cccc(C(=O)N(C)C)c3)cc2O[C@@H]1CN(C)Cc1ccc2c(c1)OCO2	8	15*	/	0	0	-3
26	COc1ccccc1-c1ccc2c(c1)O[C@H](CN(C)Cc1ccc3c(c1)OCO3)[C@H](C)CN([C@H](C)CO)S2(=O)=O	3	22*	/	0	-3	22
